Measured values as given in PubChem BioAssay AID2426 (Johns Hopkins Ion Channel Center, 2010).
The entries are a selection whose mix differs from that of the whole data set. Active and inactive are the calls of the source.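 Rule for the calls: active = fluorescence ratio normalized to control raised more than 50% in primary screen plus both repeat runs; inactive = the rest.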

The molecules below were run on TRPC4 beta (transient receptor potential cation channel C4), mouse (assay: activators of mouse TRPC4 channel, confirmation, cell-based, Fluo4 calcium, HEK293 TRPC4beta/mu-opioid, duplicates, 10 µM (AID 2426)). Conditions: Fluo4 calcium fluorescence, at 10 µM.

| SMILES | outcome |
| --- | --- |
| CN(C)CCOC(=O)C(O)(c1ccccc1)C1CCCC1 (configuration not stated) | inactive |
| CCN(CC)CCCOC(=O)C(O)(c1ccccc1)c1ccccc1 | inactive |
